Experimental data as given in patent publication US7671165B2, “Method of forming polycarbonate” (Sabic Innovative Plastics IP B.V., priority 2008, dated 2010).

Assay: Solubility of reaction components and additives in MS
Conditions: for Stable at T (room) for:: solution in MS

| SMILES | Stable at T (room) for: (0.8 wt %) [h] | Stable at T (room) for: (7.8 wt %, result in words) | Solubility in MS, T (room) (4.1 wt %, 0.5 g in 10 ml MS) | Solubility in MS, T (room) (4.8 wt %, 0.6 g in 10 ml MS) | Solubility in MS, T (room) (5.6 wt %, 0.7 g in 10 ml MS) | Solubility in MS, T (room) (6.3 wt %, 0.8 g in 10 ml MS) | Solubility in MS, T (room) (20.2 wt %, 3.0 g in 10 ml MS) | Stable at T (room) for: (4.1 wt %) [h] | Stable at T (room) for: (4.8 wt %) [h] | Stable at T (room) for: (5.6 wt %) [h] | Stable at T (room) for: (6.3 wt %) [h] | Stable at T (room) for: (20.2 wt %) [h] |
| --- | --- | --- | --- | --- | --- | --- | --- | --- | --- | --- | --- | --- |
| Cc1cc(O)ccc1O [Methyl hydroquinone] | >48 | Crystalized |  |  |  |  |  |  |  |  |  |  |
| CC(C)(C)c1cc(CCC(=O)OCC(COC(=O)CCc2cc(C(C)(C)C)c(O)c(C(C)(C)C)c2)(COC(=O)CCc2cc(C(C)(C)C)c(O)c(C(C)(C)C)c2)COC(=O)CCc2cc(C(C)(C)C)c(O)c(C(C)(C)C)c2)cc(C(C)(C)C)c1O [Irgafos 1010, [3 (3,5 di tert.butyl 4 hydroxyphenyl) propionate]] |  |  | Dissolved | Dissolved | Dissolved | Dissolved | Dissolved | 6 | 6 | 6 | 6 | 6 |
